The values below come from US9758501B2, “Fluorophore 3-hydroxyflavone” (TUBITAK (TURKIYE BILIMSEL VE TEKNOLOJIK ARASTIRMA KURUMU), priority 2013, dated 2017).

The series in a line: Solubility in water.

For “N-(3-hydroxy-4′-flavonyl)-N,N,N-trimethylammonium sulphate [3-HFNMe3]”, the solubility in water result is “highly water soluble”.
